{
  "source": "patent US20060229344A1",
  "about": "“Method of treating amyotrophic lateral sclerosis” (priority 2005, published 2006)",
  "origin": "cited, not measured here",
  "tested_on": "amyotrophic lateral sclerosis",
  "conditions": "ALS patients; Rowland, New Engl. J. Med. 2001",
  "data": [
    {"smiles": "Nc1nc2ccc(OC(F)(F)F)cc2s1", "note": "[RILUZOLE, 2-amino-6-(trifluoromethoxy) benzothiazole]", "values": [
      {"measurement": "effect on survival time in ALS", "value": "borderline significance"}
    ]}
  ]
}
